## Apparent affinities of Ab-14 variants for a coronavirus HR2 peptide

Binding partner: SARS-CoV-2 spike HR2 peptide, sequence PDVDLGDISGINAS.

Each scFv is VH, a 15-residue (Gly4Ser)3 linker, VL, as in the parent Ab-14, and differs from it in the CDRs of the heavy chain only.
VH: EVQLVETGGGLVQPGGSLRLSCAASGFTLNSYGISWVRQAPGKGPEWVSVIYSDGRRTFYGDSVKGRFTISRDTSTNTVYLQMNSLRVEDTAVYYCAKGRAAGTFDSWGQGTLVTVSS
VL: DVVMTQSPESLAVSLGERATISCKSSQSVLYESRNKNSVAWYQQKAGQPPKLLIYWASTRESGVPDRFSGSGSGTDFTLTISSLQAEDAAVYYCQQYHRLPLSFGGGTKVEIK

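Library AAYL49 holds single substitutions and randomly drawn double and triple substitutions in the CDRs. In AlphaSeq, yeast of one mating type display the scFv and yeast of the other type display the target. After mating in shaken culture at 30 °C for 16 h, diploids were selected and their barcode pairs sequenced. A regression on co-assayed BCL2-family reference pairs converts the normalised counts of each replicate to an apparent Kd. Mating was done three times.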

Variants are written as CDR1, CDR2 and CDR3 of the heavy chain (limits as in the source). Parent: GFTLNSYGIS, VIYSDGRRTFYGDSVK, GRAAGTFDS. Kd is apparent (estimated from mating counts) and averaged on the log scale over replicates with a signal. Smaller is tighter. An entry "no signal" has no value in the source: the pair was not observed among the diploids in any replicate. This suggests poor binding but is not conclusive. As a blank, each scFv also met three strains without target: over library AAYL49, 15% of these pairings were detected, typically at 11 µM and seldom below 680 nM.

CDR-H1,CDR-H2,CDR-H3,Kd,replicates with signal
GFTVNSYGIS,VIYSDGRRTFYGDIVD,GRAAGTFDS,4.5 µM,3 of 3
GFTLNSSGIS,VIYSDGRATFTGDSVK,GRAAGTFDS,no signal,0 of 3
GFTLNSYGIK,VIYADGRLTFYGDSVK,GRAAGTFDS,no signal,0 of 3
GFTLGSYGIS,VIYSDGRHTFYGDSVK,GMAAGTFDS,2.0 µM,3 of 3
GFTLNSYGIS,VIYSDGRTTFYGDSVK,GQAAGTFFS,no signal,0 of 3
GFTLNSYGNS,TIYSDGRRTFYGDSVK,GRAAVTFDS,2.5 µM,1 of 3
GFELNSYGIS,VIYSKGRRTFYGDSVK,GRSAGTFDS,no signal,0 of 3
GFTANSYGIS,VIYSDGRRTFYGDSVK,GRAAKTFNS,no signal,0 of 3
GFTLNSYGIS,VIYLDGRRTFYGDSVK,IHAAGTFDS,2.1 µM,1 of 3
GFTRNSYKIS,VIYSDGRRTFYGDSVK,GRAAGTTDS,no signal,0 of 3
GFTLNSYGIS,VIWSDGRRMWYGDSVK,GRAAGTFDS,no signal,0 of 3
GFTLNSYGIS,VIQMDGRRTFYGDSVK,GRAAGAFDS,no signal,0 of 3
GFTLNSYGIS,VIYSDGRRHFYGDSVT,GRAAGVFDS,no signal,0 of 3
GFTLNSYWIS,VIYSDGRRTWYGDSVK,GRAAGTPDS,no signal,0 of 3
GLTLNSYGIG,VIYSDGRRTFYGDSVD,GRAAGTFDS,no signal,0 of 3
GFTLNSYGIS,VIYSDGRRTFWGDSTK,GRANGTFDS,no signal,0 of 3
GFTLNSYGIS,VICSDGRRTRYGDSVK,GRAAGTFMS,20 µM,1 of 3
GFTLYSYGIS,VIYSDGRVWFYGDSVK,GRAAGTFDS,1.5 µM,1 of 3
NPTLNSYGII,VIYSDGRRTFYGDSVK,GRAAGTFDS,no signal,0 of 3
GFTLNIYGIS,VLYSDGRRTFYGDSVK,GRSAGTFDS,9.0 µM,3 of 3
MFTLNSYGIS,VIYSDGRRTFEGDSVL,GRAAGTFDS,19 µM,3 of 3
GFTLFSYGIS,VIYSDGRRTFYHDWVK,GRAAGTFDS,no signal,0 of 3
GFTLNSYGIS,VPYSDGRRTFYQDSVK,GRAAGTFDS,no signal,0 of 3
GFTLNSYGTS,VIYSDGRRTFEGDSVK,GRAAGTLDS,no signal,0 of 3
GFTLNSYGIS,VIYSDGRRTNYGDSVK,GRAAGTTDN,no signal,0 of 3
GFTLNSYGIS,KIYSDGRETFGGDSVK,GRAAGTFDS,1.9 µM,1 of 3
RFTLNSYGIS,VIYSDGRRTFYGDSVK,GRHAGTFDS,no signal,0 of 3
GFTLNSYGIS,QIYSDGRRTEYGDSVK,GRAAGTFDS,14 µM,2 of 3
GFTLNSYGIS,VIYSFGRRTFYGDSVK,GPADGTFDS,no signal,0 of 3

Continued, with the values leading:

Kd,replicates with signal,CDR-H1,CDR-H2,CDR-H3
no signal,0 of 3,GKTLNSYGIS,VITSRGRRTFYGDSVK,GRAAGTFDS
no signal,0 of 3,GFTLNSYGIS,VDYSDGERTFYGDSVK,ARAAGTFDS
no signal,0 of 3,GFTLNSYGIN,HIYSDGRRTAYGDSVK,GRAAGTFDS
460 µM,1 of 3,GFTHNSYGIS,VIYSDGRRVFYGDSVK,GRAAGTYDS
no signal,0 of 3,GFWLESYGIS,VIYSDGRRTFYGDSVK,GRAAGFFDS
no signal,0 of 3,GFTLNEYGIS,VIYSEGRRTFYGDSRK,GRAAGTFDS
no signal,0 of 3,GFTLNSYGIS,VIYSDGFRTFLGDSVK,GRAKGTFDS
no signal,0 of 3,GFTLNSYGIS,VIYIDSRPTFYGDSVK,GRAAGTFDS
21 µM,2 of 3,MFTLNSYGIS,VIYSDGRRTFYQDSVK,GPAAGTFDS
no signal,0 of 3,GFTLNSYGIS,VIYSDGRRTFYGDSLK,GYAAGCFDS
no signal,0 of 3,GFTLNSYGIS,VIYSDGRRTRYGDSVK,GRYAMTFDS
10 µM,1 of 3,GFTLNSYGIS,VIYSDCRRGFYGDSVK,GRTAGTFDS
5.6 µM,1 of 3,GFTLNDYGIS,VIYSDGPRTFYGDSMK,GRAAGTFDS
130 µM,2 of 3,GFTLNSYGIS,VINSRGRRTFYGDSVK,GRAAGTADS
3.8 µM,3 of 3,GFTLNSYGIS,VIYSDGRHTFYGDSVK,GHAAGYFDS
no signal,0 of 3,GFTLNSYGIS,VIYSDERRTFYGRSVK,GRAAGTFDS
no signal,0 of 3,GFTLNSYGIS,LIYSDGRRTFYGDSVK,GRDANTFDS
13 µM,1 of 3,GFTLNSYGIS,VIYSYGRRTFYGDSVK,QRAAGTFDF
120 nM,3 of 3,GFTLNSYGIS,VIYSDGSRTFYGDSVK,GRAAGTFDI
no signal,0 of 3,GFTLNSYGIS,VIYSDGRRTFYGDSLK,GRFAGYFDS
1.2 nM,3 of 3,GFTLNSYGIS,VIYSDGRRTFYGDSVK,GRLAGTVNS
8.6 µM,2 of 3,GFTLMSYGIS,VIYSDGRWTFYGDSVK,HRAAGTFDS
20 µM,1 of 3,GFTLNSYGIP,VIYSDGRRTFYGDSVK,GRKAGTFDW
no signal,0 of 3,RMTLNSYGIS,VIYSDGRGTFYGDSVK,GRAAGTFDS
no signal,0 of 3,GFTLNSYGNS,VIYSAGRRTFYGDSVK,GRAFGTFDS
3.8 µM,1 of 3,GFTLNSAGIS,VIYSDGRRTFYGISVK,GRAACTFDS
18 µM,2 of 3,GFTLNSYGIS,VIYSDGDRTFYGDSVK,GRAYGTFIS
no signal,0 of 3,GFTLNSYGIS,VIPSDGRRMFYGDSIK,GRAAGTFDS
no signal,0 of 3,GFTLNSYGIS,VIYEDWIRTFYGDSVK,GRAAGTFDS
19 µM,1 of 3,GHTLNSYGIS,VFYSDGRMTFYGDSVK,GRAAGTFDS

Excerpt, the final 8 entries:

| CDR-H1 | CDR-H2 | CDR-H3 | Kd | replicates with signal |
|---|---|---|---|---|
| GFTLNSYGIP | VIYSDGRRTFYGDSVK | GRKAGTFDW | 20 µM | 1 of 3 |
| RMTLNSYGIS | VIYSDGRGTFYGDSVK | GRAAGTFDS | no signal | 0 of 3 |
| GFTLNSYGNS | VIYSAGRRTFYGDSVK | GRAFGTFDS | no signal | 0 of 3 |
| GFTLNSAGIS | VIYSDGRRTFYGISVK | GRAACTFDS | 3.8 µM | 1 of 3 |
| GFTLNSYGIS | VIYSDGDRTFYGDSVK | GRAYGTFIS | 18 µM | 2 of 3 |
| GFTLNSYGIS | VIPSDGRRMFYGDSIK | GRAAGTFDS | no signal | 0 of 3 |
| GFTLNSYGIS | VIYEDWIRTFYGDSVK | GRAAGTFDS | no signal | 0 of 3 |
| GHTLNSYGIS | VFYSDGRMTFYGDSVK | GRAAGTFDS | 19 µM | 1 of 3 |

Parent in this assay: reference entry 4.4 nM, copy in this library 13 µM (one replicate of three).

Source: Engelhart et al. 2022 (doi:10.1038/s41597-022-01779-4), MIT Lincoln Laboratory and A-Alpha Bio; data file from the FLAb repository.